The values that follow come from patent EP0369035A1, “AGENT FOR TREATING PANCREATITIS OR THE LIKE” (priority 1988, dated 1989).

The chains behind the UniProt entries cited, without tags or fusion partners. Residues count along the entry.
UniProt P00760, 24-246 limits assumed: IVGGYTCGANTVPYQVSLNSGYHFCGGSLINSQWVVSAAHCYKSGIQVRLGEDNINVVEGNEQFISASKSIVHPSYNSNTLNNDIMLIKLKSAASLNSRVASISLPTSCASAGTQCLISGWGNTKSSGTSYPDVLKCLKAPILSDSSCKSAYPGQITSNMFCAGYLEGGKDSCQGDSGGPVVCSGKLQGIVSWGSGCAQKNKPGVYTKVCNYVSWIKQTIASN
UniProt P00747, 581-810 limits assumed: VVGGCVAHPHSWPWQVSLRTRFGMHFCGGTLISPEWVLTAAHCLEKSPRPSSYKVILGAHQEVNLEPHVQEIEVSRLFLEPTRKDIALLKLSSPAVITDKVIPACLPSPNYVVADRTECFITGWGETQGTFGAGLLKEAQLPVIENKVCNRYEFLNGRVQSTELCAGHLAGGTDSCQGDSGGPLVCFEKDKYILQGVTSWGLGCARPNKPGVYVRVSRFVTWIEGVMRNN
UniProt P00747, 97-580 partner limits assumed: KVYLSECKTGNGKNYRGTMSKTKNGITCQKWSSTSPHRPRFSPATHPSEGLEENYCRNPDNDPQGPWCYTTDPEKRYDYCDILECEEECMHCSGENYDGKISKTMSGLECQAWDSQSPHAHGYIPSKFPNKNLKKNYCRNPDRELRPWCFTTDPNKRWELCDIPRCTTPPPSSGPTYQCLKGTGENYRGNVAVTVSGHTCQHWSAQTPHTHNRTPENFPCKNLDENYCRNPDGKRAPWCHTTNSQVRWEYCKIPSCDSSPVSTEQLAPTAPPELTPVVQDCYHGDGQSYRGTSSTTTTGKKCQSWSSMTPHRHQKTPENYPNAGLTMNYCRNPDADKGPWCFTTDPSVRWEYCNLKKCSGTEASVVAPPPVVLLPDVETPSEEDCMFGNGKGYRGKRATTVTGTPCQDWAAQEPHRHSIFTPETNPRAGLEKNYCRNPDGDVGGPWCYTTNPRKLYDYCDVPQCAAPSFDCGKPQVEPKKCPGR
UniProt P00743, 234-492 limits assumed: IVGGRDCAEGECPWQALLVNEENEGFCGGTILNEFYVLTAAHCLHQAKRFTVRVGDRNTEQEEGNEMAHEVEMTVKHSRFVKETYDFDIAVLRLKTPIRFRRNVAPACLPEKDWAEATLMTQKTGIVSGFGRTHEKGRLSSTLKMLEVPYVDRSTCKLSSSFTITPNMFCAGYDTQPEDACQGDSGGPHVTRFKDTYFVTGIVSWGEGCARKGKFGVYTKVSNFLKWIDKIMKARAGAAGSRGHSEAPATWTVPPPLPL
UniProt P00743, 41-180 partner limits assumed: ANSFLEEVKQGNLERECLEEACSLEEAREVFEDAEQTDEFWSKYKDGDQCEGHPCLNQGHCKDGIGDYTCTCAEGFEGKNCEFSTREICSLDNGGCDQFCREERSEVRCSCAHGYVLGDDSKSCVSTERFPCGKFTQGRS
UniProt P03952, 391-638 limits assumed: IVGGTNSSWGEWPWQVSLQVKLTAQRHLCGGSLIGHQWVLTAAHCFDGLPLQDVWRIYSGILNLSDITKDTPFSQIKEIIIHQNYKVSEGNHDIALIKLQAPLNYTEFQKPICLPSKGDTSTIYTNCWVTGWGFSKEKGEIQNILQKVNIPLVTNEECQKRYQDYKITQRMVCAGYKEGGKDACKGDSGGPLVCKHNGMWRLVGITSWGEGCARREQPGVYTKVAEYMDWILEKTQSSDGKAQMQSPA
UniProt P03952, 20-390 partner limits assumed: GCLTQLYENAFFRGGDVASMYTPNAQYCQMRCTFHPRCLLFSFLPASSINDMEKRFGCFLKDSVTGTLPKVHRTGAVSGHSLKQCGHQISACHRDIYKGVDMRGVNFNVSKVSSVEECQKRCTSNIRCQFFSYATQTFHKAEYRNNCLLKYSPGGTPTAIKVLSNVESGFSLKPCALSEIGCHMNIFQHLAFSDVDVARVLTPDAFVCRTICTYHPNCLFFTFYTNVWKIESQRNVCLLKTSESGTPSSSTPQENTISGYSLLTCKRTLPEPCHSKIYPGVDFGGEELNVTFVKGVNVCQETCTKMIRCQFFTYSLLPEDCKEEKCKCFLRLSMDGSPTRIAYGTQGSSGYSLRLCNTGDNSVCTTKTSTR

The structures appear in SMILES notation. Read-outs that look alike come from different tables or passages of the source.

The test system of data set [1] is experimental pancreatitis. In words: Effect on experimental pancreatitis (sodium taurochorate + trypsin into the common bile duct), survival ratio. Details: Effect on experimental pancreatitis (100 mg/kg p.o.) After 24 hours / Effect on experimental pancreatitis (100 mg/kg p.o.) After 48 hours: unit not given here. The conditions noted are these: rat; for Effect on experimental pancreatitis Survival ratio(%) After 24 hours / Effect on experimental pancreatitis Survival ratio(%) After 48 hours: 80 μg/kg/min. x 80 min. continuous infusion.

In data set [2] the target is Trypsin (Bos taurus, UniProt P00760). Kind of data set: Anti-trypsin activity (S-2238). It counts as biochemical. Particulars: read-out: Trypsin S-2238 (I50), substrate S-2238.
In data set [3] the target is T1, human plasmin (Homo sapiens, UniProt P00747). Kind of data set: Anti-plasmin activity: inhibition of fibrinolysis (fibrin clot lysis time). The class given is biochemical. Particulars: read-out: Plasmin Fibrin (I50), concentration giving a fibrin clot lysis time twice that of control, 37°C, pH7.4.
Data set [4] relates to ICR male mice. Particulars: intravenous, up-and-down method.
Data set [5] addresses T1, human plasmin. Kind of data set: Anti-plasmin activity: inhibition of S-2251 degradation. The conditions noted are these: read-out: Plasmin S-2251 (I50), substrate S-2251, 37°C, pH7.4. The class given is biochemical.
Data set [6] concerns the target bovine factor Xa (Bos taurus, UniProt P00743). In words: Anti-FXa activity: inhibition of S-2222 degradation. The class given is biochemical. The conditions noted are these: read-out: FXa S-2222 (I50); substrate S-2222, 37°C, pH 8.3; tested form: 2HCl. As to the method:
4) Assay of anti-FXa activity Assay method of inhibition of S-2222 degradation
To 0.4 ml of the test substance dissolved in a 0.05 M Tris-HC1 (pH 8.3) buffer is added 0.05 ml of 3 mM S-2222 solution, and after incubation at 37°C for about 4 minutes, an addition of 0.05 ml of 0.3 vial/ml bovine factor Xa, and a reaction at 37°C for 4 minutes, the - reaction was terminated by adding 0.05 ml of 50% acetic acid.

Data set [7] deals with human urokinase (Homo sapiens, UniProt P00749). In words: Anti-urokinase activity: inhibition of S-2444 degradation. The class given is biochemical. Particulars: read-out: Urokinase S-2444 (I50); substrate S-2444, 37°C, pH 8.8; tested form: HCl. The protocol: 3) Assay of anti-urokinase activity Assay method of inhibition of S-2444 degradation
The test substance was dissolved in a 0.05 M Tris-HC1 (pH 8.8) buffer to make a total volume of 400 µl, and 50 µl of a 1 mM S-2444 solution was added to the mixture. After incubation at 37°C for 5 minutes in an incubator, an addition of 50 µl of 500 units/ml human urokinase solution, and incubation at 37°C for 5 minutes, the reaction was terminated by an addition of 50 µl of 50% acetic acid.

Data set [8] concerns the target human plasma kallikrein (Homo sapiens, UniProt P03952). Kind of data set: Anti-plasma kallikrein activity: inhibition of S-2302 degradation. It counts as biochemical. The conditions noted are these: read-out: Plasma kallikrein S-2302 (I50); substrate S-2302, 37°C, pH 7.8; tested form: HCl.
Setting [9] is: after 24 hours, tested form: 2HCl.
Setting [10] is: after 48 hours, tested form: 2HCl.

Turning to `CC(=O)c1ccc(NC(=O)[C@H](Cc2ccc(Oc3ccc([N+](=O)[O-])cn3)cc2)NC(=O)C2CCC(CN)CC2)cc1` (stereo partly shown), the “Effect on experimental pancreatitis Survival ratio(%) After 24 hours” value in data set [1] (setting [9]) is 66.7%. Also, the “Effect on experimental pancreatitis Survival ratio(%) After 48 hours” value in data set [1] (setting [10]) worked out at 58.3%. Moreover, in data set [1] (survival ratio, 100 mg/kg p.o. 30 minutes before pancreatitis, after 24 hours, tested form: 2HCl), the “Effect on experimental pancreatitis (100 mg/kg p.o.) After 24 hours” value is listed as 76.9. For the same compound, the “Effect on experimental pancreatitis (100 mg/kg p.o.) After 48 hours” value in data set [1] (survival ratio, 100 mg/kg p.o. 30 minutes before pancreatitis, after 48 hours, tested form: 2HCl) is given as 53.8. Moreover, the IC50 in data set [2] (tested form: 2HCl) worked out at 0.2 µM; in data set [3] (tested form: 2HCl), 0.4 µM; in data set [5] (tested form: 2HCl), 1 µM; in data set [6] it was 27 µM. Moreover, the “Acute toxicity (LD50)” value in data set [4] (tested form: 2HCl) came to 60 mg/kg.
For the compound `NCC1CCC(C(=O)N[C@@H](Cc2ccc(OCc3ccccc3)cc2)C(=O)Nc2cccc(CC(=O)O)c2)CC1` (stereo partly shown), the “Effect on experimental pancreatitis Survival ratio(%) After 24 hours” value in data set [1] (after 24 hours, tested form: HCl) is listed as 41.7%. The “Effect on experimental pancreatitis Survival ratio(%) After 48 hours” value in data set [1] (after 48 hours, tested form: HCl) was 33.3%. The IC50 is 14 µM in data set [2] (tested form: HCl); more than 500 µM in data set [7]; 31 µM in data set [3] (tested form: HCl); 3.6 µM in data set [8]; 36 µM in data set [5] (tested form: HCl). The “Acute toxicity (LD50)” value in data set [4] (tested form: HCl) was more than 100 mg/kg.
With `CC(=O)c1ccc(NC(=O)[C@H](Cc2ccc(OCc3ccncc3)cc2)NC(=O)C2CCC(CN)CC2)cc1` (stereo partly shown), the “Effect on experimental pancreatitis Survival ratio(%) After 24 hours” value in data set [1] (setting [9]) is given as 43.3%. Moreover, in data set [1] (setting [10]), the “Effect on experimental pancreatitis Survival ratio(%) After 48 hours” value was found to be 26.7%. In addition, the IC50 in data set [3] (tested form: 2HCl) stood at 0.7 µM; in data set [6] it was 65 µM. Moreover, the “Acute toxicity (LD50)” value in data set [4] (tested form: 2HCl) is 50 mg/kg.
